Amino acid sequences for entries named in this document (tags omitted).
UniProt P35372, whole entry, looked up: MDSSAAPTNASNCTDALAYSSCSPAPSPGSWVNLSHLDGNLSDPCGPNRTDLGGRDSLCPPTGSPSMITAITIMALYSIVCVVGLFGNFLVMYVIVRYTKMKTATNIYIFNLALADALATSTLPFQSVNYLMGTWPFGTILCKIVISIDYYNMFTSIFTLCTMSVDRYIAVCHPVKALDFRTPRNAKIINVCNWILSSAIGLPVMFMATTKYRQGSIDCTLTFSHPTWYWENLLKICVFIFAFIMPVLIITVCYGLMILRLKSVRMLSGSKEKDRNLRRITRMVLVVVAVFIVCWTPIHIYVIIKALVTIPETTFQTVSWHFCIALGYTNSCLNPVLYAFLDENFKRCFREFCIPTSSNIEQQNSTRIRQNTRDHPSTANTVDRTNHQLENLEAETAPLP
UniProt P41143, whole entry, looked up: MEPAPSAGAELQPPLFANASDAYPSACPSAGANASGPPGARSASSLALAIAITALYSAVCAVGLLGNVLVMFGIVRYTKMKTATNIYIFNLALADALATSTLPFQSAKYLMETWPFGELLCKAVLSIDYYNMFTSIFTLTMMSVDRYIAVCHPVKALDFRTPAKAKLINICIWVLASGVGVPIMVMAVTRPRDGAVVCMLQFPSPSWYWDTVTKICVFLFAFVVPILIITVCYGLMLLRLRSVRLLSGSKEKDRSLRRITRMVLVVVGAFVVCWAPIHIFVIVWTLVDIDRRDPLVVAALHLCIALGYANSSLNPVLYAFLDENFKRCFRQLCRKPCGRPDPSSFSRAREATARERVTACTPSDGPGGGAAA

According to ChEMBL document CHEMBL1144921, “14-amino, 14-alkylamino, and 14-acylamino analogs of oxymorphindole. Differential effects on opioid receptor binding and functional profiles” (J Med Chem, 2003):

Experiments:
Mu-type opioid receptor [1] = molecular target: T1, Mu-type opioid receptor (Homo sapiens, UniProt P35372); settings: cho
[2] = molecular target: Delta-type opioid receptor (Homo sapiens, UniProt P41143); assay: Stimulation of [35S]GTP-gamma-S, binding at human recombinant Opioid receptor delta 1 transfected into CHO cells.
Mu-type opioid receptor [3] = molecular target: T1, Mu-type opioid receptor; assay: Stimulation of [35S]GTP-gamma-S, binding to recombinant human Opioid receptor mu 1 expressed in CHO cells

With CN(C(=O)Cc1ccccc1)[C@H]1CC[C@@]2(CCCO2)C[C@@H]1N1CCCC1 the Ki (Mu-type opioid receptor [1]) was 1.15 µM, the EC50 [2] was greater than 10 µM and the EC50 (Mu-type opioid receptor [3]) was greater than 10 µM.
